# Molecular target: recombinant TFRC (UniProt P02786 1-760)
# Test: SPR; rCf48 and recombinant TFRC; which one was immobilised is not stated
# Settings: both partners purified
binder,measurement,value
"recombinant mouse Cf48 (rCf48) lacking the signal peptide (secreted form) (peptide, UniProt Q3UR78 29-90, looked up, Mouse Cf48 (Gm1673; C4orf48 in humans), secreted form lacking the signal peptide; also called recombinant Cf48 peptide; source: recombinant) EPATGSAVPAQSRPCVDCHAFEFMQRALQDLRKTAYSLDARTETLLLQAERRALCACWPAGR",Kd,571 nM

# Reference: paper PMC11093611 (The Journal of Clinical Investigation, 2024)
